Reference: PubChem BioAssay (NCI)
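Step 1: Grow cells in 96-well plates. Step 2: Expose to compound for 48 hours at 5 concentrations. Step 3: Interpolate endpoints linearly; if unreached, use highest concentration. GI50 is the concentration that inhibits growth by half. TGI is the concentration that stops growth completely.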

Key:
Test in all cases: NCI anticancer screen, dose series, 48 h
RPMI-8226 leukemia = tested on: RPMI-8226 leukemia
HS 578T breast = tested on: HS 578T breast
NCI-H23 lung = tested on: NCI-H23 lung
HOP-92 NSCLC = tested on: HOP-92 NSCLC
KM12 colon = tested on: KM12 colon
UACC-257 melanoma = tested on: UACC-257 melanoma
ACHN renal = tested on: ACHN renal
OVCAR-8 ovarian = tested on: OVCAR-8 ovarian
COLO 205 colon = tested on: COLO 205 colon
SNB-19 CNS = tested on: SNB-19 CNS
HOP-62 NSCLC = tested on: HOP-62 NSCLC
HCC-2998 colon = tested on: HCC-2998 colon
MDA-MB-231 breast = tested on: MDA-MB-231 breast
SF-539 CNS = tested on: SF-539 CNS
SK-MEL-5 melanoma = tested on: SK-MEL-5 melanoma
UO-31 renal = tested on: UO-31 renal
SW-620 colon = tested on: SW-620 colon
MCF7 breast = tested on: MCF7 breast
CCRF-CEM leukemia = tested on: CCRF-CEM leukemia
NCI-H522 lung = tested on: NCI-H522 lung
A498 renal = tested on: A498 renal
HCT-116 colon = tested on: HCT-116 colon
T-47D breast = tested on: T-47D breast
MALME-3M melanoma = tested on: MALME-3M melanoma
HT29 colon = tested on: HT29 colon
LOX IMVI melanoma = tested on: LOX IMVI melanoma
SK-MEL-2 melanoma = tested on: SK-MEL-2 melanoma
TK-10 renal = tested on: TK-10 renal
DU-145 prostate = tested on: DU-145 prostate
IGROV1 ovarian = tested on: IGROV1 ovarian
SNB-75 CNS = tested on: SNB-75 CNS
NCI-H460 lung = tested on: NCI-H460 lung
SF-268 CNS = tested on: SF-268 CNS
NCI-H226 lung = tested on: NCI-H226 lung
K-562 leukemia = tested on: K-562 leukemia
U251 CNS = tested on: U251 CNS
CAKI-1 renal = tested on: CAKI-1 renal
HL-60(TB) leukemia = tested on: HL-60(TB) leukemia
786-0 renal = tested on: 786-0 renal
MDA-MB-435 = tested on: MDA-MB-435
MOLT-4 leukemia = tested on: MOLT-4 leukemia
PC-3 prostate = tested on: PC-3 prostate
SR leukemia = tested on: SR leukemia
BT-549 breast = tested on: BT-549 breast
SK-OV-3 ovarian = tested on: SK-OV-3 ovarian
M14 melanoma = tested on: M14 melanoma
SK-MEL-28 melanoma = tested on: SK-MEL-28 melanoma
A549 NSCLC = tested on: A549 NSCLC
SN12C renal = tested on: SN12C renal
RXF 393 renal = tested on: RXF 393 renal
NCI/ADR-RES ovarian = tested on: NCI/ADR-RES ovarian
EKVX NSCLC = tested on: EKVX NSCLC
OVCAR-5 ovarian = tested on: OVCAR-5 ovarian
NCI-H322M lung = tested on: NCI-H322M lung
SF-295 CNS = tested on: SF-295 CNS
OVCAR-3 ovarian = tested on: OVCAR-3 ovarian
OVCAR-4 ovarian = tested on: OVCAR-4 ovarian
HCT-15 colon = tested on: HCT-15 colon
UACC-62 melanoma = tested on: UACC-62 melanoma

## C[As](C)SCC(O)CO (stereo not drawn)
RPMI-8226 leukemia
  GI50: 0.476 µM
  TGI: 1.17 µM
HS 578T breast
  GI50: 2.48 µM
  TGI: 14.1 µM
NCI-H23 lung
  GI50: 0.781 µM
  TGI: 4.14 µM
HOP-92 NSCLC
  GI50: 3.01 µM
  TGI: 8.5 µM
KM12 colon
  GI50: 9.61 µM
  TGI: 27.4 µM
UACC-257 melanoma
  GI50: 3.81 µM
  TGI: 16 µM
ACHN renal
  GI50: 2.56 µM
  TGI: 25.6 µM
OVCAR-8 ovarian
  GI50: 4.05 µM
  TGI: 11.8 µM
COLO 205 colon
  GI50: 1.27 µM
  TGI: 7.59 µM
SNB-19 CNS
  GI50: 20.1 µM
  TGI: 45.6 µM
HOP-62 NSCLC
  GI50: 6.96 µM
  TGI: 19.9 µM
HCC-2998 colon
  GI50: 11.4 µM
  TGI: 18.2 µM
MDA-MB-231 breast
  GI50: 2.7 µM
  TGI: 7.02 µM
SF-539 CNS
  GI50: 4.11 µM
  TGI: 9.76 µM
SK-MEL-5 melanoma
  GI50: 3.39 µM
  TGI: 7.2 µM
UO-31 renal
  GI50: 2.52 µM
  TGI: 33.5 µM
SW-620 colon
  GI50: 1.83 µM
  TGI: 15.7 µM
MCF7 breast
  GI50: 1.44 µM
  TGI: 23.7 µM
CCRF-CEM leukemia
  GI50: 0.761 µM
  TGI: 5.42 µM
NCI-H522 lung
  GI50: 1.32 µM
  TGI: 35.6 µM
A498 renal
  GI50: 1.66 µM
  TGI: 10.9 µM
HCT-116 colon
  GI50: 7.26 µM
  TGI: 20.9 µM
T-47D breast
  GI50: 3.69 µM
  TGI: 15 µM
MALME-3M melanoma
  GI50: 1.01 µM
  TGI: 5.92 µM
HT29 colon
  GI50: 2.74 µM
  TGI: 35 µM
LOX IMVI melanoma
  GI50: 3.41 µM
  TGI: 34.7 µM
SK-MEL-2 melanoma
  GI50: 2.14 µM
  TGI: 41.6 µM
TK-10 renal
  GI50: 1.39 µM
  TGI: 7.67 µM
DU-145 prostate
  GI50: 1.26 µM
  TGI: 8.09 µM
IGROV1 ovarian
  GI50: 3.73 µM
  TGI: 30 µM
SNB-75 CNS
  GI50: 12.6 µM
  TGI: 39.1 µM
NCI-H460 lung
  GI50: 9.38 µM
  TGI: 45.3 µM
SF-268 CNS
  GI50: 5.43 µM
  TGI: 18.4 µM
NCI-H226 lung
  GI50: 6.69 µM
  TGI: 19.1 µM
K-562 leukemia
  GI50: 0.671 µM
  TGI: 27.6 µM
U251 CNS
  GI50: 9.39 µM
  TGI: 65.1 µM
CAKI-1 renal
  GI50: 1.16 µM
  TGI: 10.1 µM
HL-60(TB) leukemia
  GI50: 1.84 µM
  TGI: 18.1 µM
786-0 renal
  GI50: 0.963 µM
  TGI: 5.53 µM
MDA-MB-435
  GI50: 1.05 µM
  TGI: 8.85 µM
MOLT-4 leukemia
  GI50: 1.3 µM
  TGI: 20.7 µM
PC-3 prostate
  GI50: 1.85 µM
  TGI: 13.2 µM
SR leukemia
  GI50: 0.361 µM
  TGI: > 100 µM
BT-549 breast
  GI50: 1.34 µM
  TGI: 7.76 µM
SK-OV-3 ovarian
  GI50: 6.62 µM
  TGI: 35.1 µM
M14 melanoma
  GI50: 0.962 µM
  TGI: 6.77 µM
SK-MEL-28 melanoma
  GI50: 2.4 µM
  TGI: 6.86 µM
A549 NSCLC
  GI50: 6.87 µM
  TGI: 32.3 µM
SN12C renal
  GI50: 1.01 µM
  TGI: 5.31 µM
RXF 393 renal
  GI50: 1.93 µM
  TGI: 15.3 µM
NCI/ADR-RES ovarian
  GI50: 3.26 µM
  TGI: 24 µM
EKVX NSCLC
  GI50: 8.12 µM
  TGI: 16.6 µM
OVCAR-5 ovarian
  GI50: 2.94 µM
  TGI: 13.6 µM
NCI-H322M lung
  GI50: 16.3 µM
  TGI: 32.3 µM
SF-295 CNS
  GI50: 8.86 µM
  TGI: 24.8 µM
OVCAR-3 ovarian
  GI50: 0.908 µM
  TGI: 7.97 µM
OVCAR-4 ovarian
  GI50: 9.17 µM
  TGI: 20.1 µM
HCT-15 colon
  GI50: 1.47 µM
  TGI: 37.1 µM
UACC-62 melanoma
  GI50: 2.71 µM
  TGI: 16.1 µM
